{
  "sequences": {"note": "Protein sequences, listed by entry. Tags and fused reporters are not part of them. Residues count along the entry.", "UniProt O00763, 27-2458 limits assumed": "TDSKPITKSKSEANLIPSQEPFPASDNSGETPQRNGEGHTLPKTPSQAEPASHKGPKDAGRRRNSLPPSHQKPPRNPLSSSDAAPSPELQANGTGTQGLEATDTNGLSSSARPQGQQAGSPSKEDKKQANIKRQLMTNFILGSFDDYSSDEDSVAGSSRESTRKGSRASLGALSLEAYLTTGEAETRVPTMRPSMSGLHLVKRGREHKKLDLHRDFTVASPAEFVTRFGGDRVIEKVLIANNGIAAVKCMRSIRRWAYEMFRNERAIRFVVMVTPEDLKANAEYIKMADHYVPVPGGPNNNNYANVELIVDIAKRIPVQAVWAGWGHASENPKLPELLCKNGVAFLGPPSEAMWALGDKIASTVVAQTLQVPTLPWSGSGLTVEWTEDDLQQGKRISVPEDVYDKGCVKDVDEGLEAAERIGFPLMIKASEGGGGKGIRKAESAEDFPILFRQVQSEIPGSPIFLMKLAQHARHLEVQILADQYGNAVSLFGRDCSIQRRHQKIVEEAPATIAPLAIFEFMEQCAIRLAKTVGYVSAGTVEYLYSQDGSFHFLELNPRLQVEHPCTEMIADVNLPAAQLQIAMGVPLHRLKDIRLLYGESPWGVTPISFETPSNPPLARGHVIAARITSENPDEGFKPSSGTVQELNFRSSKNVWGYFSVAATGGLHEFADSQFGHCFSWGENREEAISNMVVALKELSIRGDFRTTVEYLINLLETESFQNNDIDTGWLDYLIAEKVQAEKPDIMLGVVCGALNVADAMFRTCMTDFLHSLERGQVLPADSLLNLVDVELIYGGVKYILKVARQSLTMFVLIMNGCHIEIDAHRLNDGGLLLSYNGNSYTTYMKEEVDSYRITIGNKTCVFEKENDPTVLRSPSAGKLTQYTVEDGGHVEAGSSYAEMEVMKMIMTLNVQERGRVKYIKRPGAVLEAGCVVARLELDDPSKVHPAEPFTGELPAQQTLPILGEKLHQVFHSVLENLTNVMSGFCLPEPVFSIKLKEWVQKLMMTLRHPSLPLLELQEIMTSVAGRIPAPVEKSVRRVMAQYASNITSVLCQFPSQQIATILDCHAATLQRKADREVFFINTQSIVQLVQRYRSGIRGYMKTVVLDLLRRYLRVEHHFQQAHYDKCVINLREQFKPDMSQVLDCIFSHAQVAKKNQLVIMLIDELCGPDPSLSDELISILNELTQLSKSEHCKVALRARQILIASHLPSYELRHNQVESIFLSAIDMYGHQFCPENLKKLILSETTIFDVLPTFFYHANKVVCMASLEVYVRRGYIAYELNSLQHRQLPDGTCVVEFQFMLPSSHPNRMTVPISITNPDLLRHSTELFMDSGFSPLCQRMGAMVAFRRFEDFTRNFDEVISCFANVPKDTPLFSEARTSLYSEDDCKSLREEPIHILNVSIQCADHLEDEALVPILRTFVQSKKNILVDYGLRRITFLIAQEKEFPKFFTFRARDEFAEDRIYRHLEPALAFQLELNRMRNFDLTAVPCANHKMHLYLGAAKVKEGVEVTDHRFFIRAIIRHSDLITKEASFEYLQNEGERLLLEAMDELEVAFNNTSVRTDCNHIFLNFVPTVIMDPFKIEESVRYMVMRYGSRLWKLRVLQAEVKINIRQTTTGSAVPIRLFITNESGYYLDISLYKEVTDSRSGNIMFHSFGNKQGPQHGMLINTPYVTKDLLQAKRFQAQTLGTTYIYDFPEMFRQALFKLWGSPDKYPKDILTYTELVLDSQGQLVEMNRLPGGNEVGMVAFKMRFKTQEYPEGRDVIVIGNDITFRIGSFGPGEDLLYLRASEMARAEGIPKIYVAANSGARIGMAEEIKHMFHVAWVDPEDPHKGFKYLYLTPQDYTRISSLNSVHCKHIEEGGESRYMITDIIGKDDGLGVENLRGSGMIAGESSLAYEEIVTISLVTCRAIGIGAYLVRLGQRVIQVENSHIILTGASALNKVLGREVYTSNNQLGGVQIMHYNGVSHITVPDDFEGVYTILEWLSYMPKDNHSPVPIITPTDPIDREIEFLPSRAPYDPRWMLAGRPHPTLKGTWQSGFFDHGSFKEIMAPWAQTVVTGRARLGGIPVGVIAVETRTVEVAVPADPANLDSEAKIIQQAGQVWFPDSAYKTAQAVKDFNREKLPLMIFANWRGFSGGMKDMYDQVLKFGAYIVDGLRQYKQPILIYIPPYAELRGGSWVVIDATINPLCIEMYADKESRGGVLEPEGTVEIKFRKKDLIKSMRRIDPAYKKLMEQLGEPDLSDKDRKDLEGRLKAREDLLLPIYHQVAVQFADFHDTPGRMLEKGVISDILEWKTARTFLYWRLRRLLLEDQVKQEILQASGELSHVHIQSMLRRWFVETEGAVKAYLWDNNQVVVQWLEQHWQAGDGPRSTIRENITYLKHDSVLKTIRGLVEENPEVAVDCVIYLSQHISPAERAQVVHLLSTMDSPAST"},
  "source": "patent US20150246938A1",
  "about": "“NOVEL OLEFIN DERIVATIVE” (SHIONOGI & CO., LTD., priority 2011, published 2015)",
  "target": "recombinant human ACC2 (Homo sapiens, UniProt O00763)",
  "experiment": "Measurement of inhibitory activity on human ACC2 (MALDI-TOF MS, acetyl CoA to malonyl CoA conversion)",
  "format": "biochemical",
  "conditions": "inhibition activity on human ACC2, Table 79",
  "data": [
    {"smiles": "CC(=O)N[C@@H](C)/C=C/c1ccc(Oc2ccc(OCC3CC3)cc2Cl)cc1F", "values": [
      {"measurement": "IC50", "result": 7, "unit": "nM"}
    ]}
  ]
}
